Read-outs that look alike come from different tables or passages of the source.
What was measured:
Assay in all cases: biochemical
Assay type in all cases: binding
HLA-DR DRB1*0401 (DR4) = HLA-DR DRB1*0401 (DR4) (Homo sapiens, UniProt P01903+P01911, A100K/A169T/F76Y/I96L/K127E/L162R/M171V/N62H/P40V/Q125Y/R42H/S133A/S149N/S66Y/V115G/V209L/W38E)
HLA-DR DRB4*0101 (DR53) = HLA-DR DRB4*0101 (DR53) (Homo sapiens, UniProt P01903+P13762, G164S)
HLA-DR DRB1*0101 (DR1) = HLA-DR DRB1*0101 (DR1) (Homo sapiens, UniProt P01903+P01911, A100R/D57E/F55L/F60I/F76Y/I96L/L162R/M171V/P40L/Q125E/R42F/V115G/Y59C)
HLA-DR DRB1*0701 (DR7) = HLA-DR DRB1*0701 (DR7) (Homo sapiens, UniProt P01903+P01911, A100R/A102G/A103Q/D57E/D86V/E43K/F76Y/K127E/L162R/M171V/P40G/Q125H/Q99D/R33Q/R42Y/R54Q/S133A/S66F/T210M/V115G/Y107V/Y59L/Y89S); settings: DRB1 *0701
HLA-DR DRB1*0802 (DR8) = HLA-DR DRB1*0802 (DR8) (Homo sapiens, UniProt P01903+P01911, A100R/A103L/A169T/F76Y/H45Y/I96F/K41T/L162R/M171V/P40S/Q125H/Q178H/Q39Y/Q99D/R218S/R42G/S66Y/V115G/W38E)
HLA-DR DRB5*0101 (DR51) = HLA-DR DRB5*0101 (DR51) (Homo sapiens, UniProt P01903+Q30154); settings: DRB5 *0101
HLA-DR DRB1*0301 (DR3) = HLA-DR DRB1*0301 (DR3) (Homo sapiens, UniProt P01903+P01911, A100K/A102G/A103R/A169T/F55Y/I96L/K41T/L162R/M171V/P40S/Q125H/Q178H/Q39Y/R42S/S66N/T106N/T262R/W38E/Y61H)
HLA-DR DRB1*0901 (DR9) = HLA-DR DRB1*0901 (DR9) (Homo sapiens, UniProt P01903+P01911, A100R/A103E/D57H/D86V/F55Y/F60I/F76Y/I96F/K127E/L162R/M171V/P40D/Q125H/Q99R/R33Q/R42F/S133A/S66N/T210M/V115G/W38K/Y107V/Y59G/Y89S); settings: DRB1 *0901

Chains of the proteins cited; added tags and fusions are not shown. Residues count along the entry.
UniProt Q30154, 30-266: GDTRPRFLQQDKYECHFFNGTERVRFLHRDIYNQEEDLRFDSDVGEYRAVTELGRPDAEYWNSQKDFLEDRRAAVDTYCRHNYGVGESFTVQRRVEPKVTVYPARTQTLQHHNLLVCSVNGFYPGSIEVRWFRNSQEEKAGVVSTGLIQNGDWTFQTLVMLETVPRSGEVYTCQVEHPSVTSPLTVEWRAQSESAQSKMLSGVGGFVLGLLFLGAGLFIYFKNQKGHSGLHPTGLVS

CC(C)C[C@H](NC(=O)[C@H](CO)NC(=O)[C@H](Cc1ccc(O)cc1)NC(=O)[C@@H](N)CS)C(=O)N[C@@H](Cc1ccc(O)cc1)C(=O)NCC(=O)N[C@H](C(=O)N[C@H](C(=O)N[C@@H](CC(C)C)C(=O)N[C@@H](CCC(=O)O)C(=O)N[C@@H](CCC(N)=O)C(=O)N[C@@H](CCC(N)=O)C(=O)N[C@@H](Cc1ccc(O)cc1)C(=O)N[C@@H](CC(N)=O)C(=O)N[C@@H](CCCCN)C(=O)O)[C@@H](C)O)[C@@H](C)O
IC50 (HLA-DR DRB1*0401 (DR4); DRB1 *0401): 1.32 µM

CC[C@H](C)[C@H](NC(=O)CNC(=O)[C@H](Cc1ccccc1)NC(=O)[C@H](CO)NC(=O)CNC(=O)[C@H](CCSC)NC(=O)[C@H](CC(C)C)NC(=O)[C@H](CC(C)C)NC(=O)[C@H](CCC(=O)O)NC(=O)[C@H](CCC(N)=O)NC(=O)[C@H](CC(C)C)NC(=O)[C@@H](NC(=O)[C@H](CCCNC(=N)N)NC(=O)[C@@H](NC(=O)[C@@H](N)CC(=O)O)[C@@H](C)CC)[C@@H](C)CC)C(=O)O
IC50 (HLA-DR DRB1*0401 (DR4); DRB1 *0401): 0.166 µM

CC(C)C[C@H](NC(=O)[C@H](C)NC(=O)[C@H](C)NC(=O)CN)C(=O)NCC(=O)NCC(=O)N[C@@H](C)C(=O)N[C@@H](C)C(=O)N[C@@H](CCCNC(=N)N)C(=O)N[C@@H](C)C(=O)N[C@@H](CC(C)C)C(=O)N[C@@H](C)C(=O)N[C@@H](Cc1c[nH]cn1)C(=O)NCC(=O)N[C@H](C(=O)O)C(C)C
IC50 (HLA-DR DRB1*0401 (DR4)): 21.4 µM | IC50 (HLA-DR DRB4*0101 (DR53)): 3.51 µM

CC(C)C[C@H](NC(=O)[C@@H]1CCCN1C(=O)[C@H](C)NC(=O)CN)C(=O)NCC(=O)NCC(=O)N[C@@H](C)C(=O)N[C@@H](C)C(=O)N[C@@H](CCCNC(=N)N)C(=O)N[C@@H](C)C(=O)N[C@@H](C)C(=O)N[C@@H](C)C(=O)N[C@@H](Cc1c[nH]cn1)C(=O)NCC(=O)N[C@H](C(=O)O)C(C)C
IC50 (HLA-DR DRB1*0101 (DR1)): 0.797 µM

CC[C@H](C)[C@H](NC(=O)[C@H](Cc1ccc(O)cc1)NC(=O)[C@H](CC(C)C)NC(=O)[C@H](CC(C)C)NC(=O)[C@H](Cc1ccccc1)NC(=O)[C@H](CC(C)C)NC(=O)[C@H](Cc1ccccc1)NC(=O)[C@H](Cc1ccccc1)NC(=O)[C@@H](N)Cc1c[nH]cn1)C(=O)N[C@@H](CC(C)C)C(=O)N[C@@H](Cc1ccccc1)C(=O)N[C@@H](CC(C)C)C(=O)N[C@H](C(=O)N[C@@H](CCCCN)C(=O)N[C@@H](CCSC)C(=O)O)C(C)C
IC50 (HLA-DR DRB1*0401 (DR4); DRB1 *0401): 0.26 µM | IC50 (HLA-DR DRB1*0701 (DR7)): 42.4 µM | IC50 (HLA-DR DRB1*0802 (DR8)): 19.6 µM | IC50 (HLA-DR DRB5*0101 (DR51)): 10.1 µM

CC[C@H](C)[C@H](NC(=O)[C@H](C)NC(=O)[C@@H]1CCCN1C(=O)[C@H](CO)NC(=O)CNC(=O)[C@@H]1CCCN1C(=O)CNC(=O)[C@@H]1CCCN1C(=O)CNC(=O)[C@H](CC(N)=O)NC(=O)[C@H](CC(C)C)NC(=O)[C@@H](NC(=O)[C@H](CCCNC(=N)N)NC(=O)[C@@H]1CCCN1C(=O)[C@H](CO)NC(=O)[C@@H](NC(=O)[C@H](C)NC(=O)[C@H](CCC(N)=O)NC(=O)[C@@H](N)Cc1c[nH]cn1)[C@@H](C)CC)[C@@H](C)O)C(=O)N[C@@H](Cc1ccccc1)C(=O)O
IC50 (HLA-DR DRB1*0401 (DR4); DRB1 *0401): 12.1 µM

CC[C@H](C)[C@H](NC(=O)[C@H](Cc1ccc(O)cc1)NC(=O)[C@H](CC(=O)O)NC(=O)[C@@H](N)CCCCN)C(=O)N[C@@H](CC(C)C)C(=O)N[C@@H](CC(=O)O)C(=O)N[C@@H](CC(C)C)C(=O)N[C@@H](CCC(N)=O)C(=O)N1CCC[C@H]1C(=O)N[C@@H](CCC(=O)O)C(=O)N[C@H](C(=O)N[C@H](C(=O)N[C@@H](CC(=O)O)C(=O)N[C@@H](CC(C)C)C(=O)N[C@@H](Cc1c[nH]cn1)C(=O)O)[C@@H](C)O)[C@@H](C)O
IC50 (HLA-DR DRB1*0101 (DR1); DRB1 *0101): 6.41 µM

CSCC[C@H](NC(=O)[C@H](CCCNC(=N)N)NC(=O)[C@H](CCCCN)NC(=O)CNC(=O)[C@H](CCCNC(=N)N)NC(=O)[C@@H](NC(=O)[C@H](Cc1ccccc1)NC(=O)[C@H](CC(=O)O)NC(=O)[C@H](CCC(=O)O)NC(=O)[C@H](CCCCN)NC(=O)[C@H](CCC(=O)O)NC(=O)[C@@H](N)CC(C)C)[C@@H](C)O)C(=O)N[C@@H](CO)C(=O)N[C@@H](CO)C(=O)N[C@@H](CC(C)C)C(=O)O
IC50 (HLA-DR DRB1*0301 (DR3)): 50.7 µM | IC50 (HLA-DR DRB1*0401 (DR4); DRB1 *0401): > 20.9 µM | IC50 (HLA-DR DRB1*0901 (DR9)): > 77.3 µM

CC(C)C[C@H](NC(=O)[C@H](CCCCN)NC(=O)[C@H](Cc1c[nH]cn1)NC(=O)[C@@H](N)CC(C)C)C(=O)N[C@@H](CCC(N)=O)C(=O)N[C@H](C(=O)N[C@@H](Cc1ccc(O)cc1)C(=O)N1CCC[C@H]1C(=O)N[C@@H](CCCNC(=N)N)C(=O)N[C@H](C(=O)N[C@@H](CC(N)=O)C(=O)N[C@H](C(=O)NCC(=O)N[C@@H](CO)C(=O)NCC(=O)O)[C@@H](C)O)[C@@H](C)O)[C@@H](C)O
IC50 (HLA-DR DRB1*0401 (DR4); DRB1 *0401): 15.2 µM

CC[C@H](C)[C@H](NC(=O)[C@H](Cc1c[nH]cn1)NC(=O)[C@H](CCC(N)=O)NC(=O)[C@H](CC(N)=O)NC(=O)[C@H](Cc1ccccc1)NC(=O)[C@H](CC(C)C)NC(=O)[C@H](Cc1ccc(O)cc1)NC(=O)[C@H](Cc1ccc(O)cc1)NC(=O)[C@@H](N)CC(C)C)C(=O)N[C@@H](CCCCN)C(=O)N[C@@H](CCCCN)C(=O)N[C@@H](CCC(=O)O)C(=O)N[C@@H](CC(C)C)C(=O)N[C@@H](Cc1ccc(O)cc1)C(=O)N[C@@H](Cc1c[nH]cn1)C(=O)O
IC50 (HLA-DR DRB1*0401 (DR4); DRB1 *0401): 1.32 µM

CC[C@H](C)[C@H](NC(=O)[C@H](CC(N)=O)NC(=O)[C@H](CO)NC(=O)[C@H](CC(=O)O)NC(=O)[C@H](CO)NC(=O)[C@H](C)NC(=O)CNC(=O)[C@H](Cc1ccc(O)cc1)NC(=O)[C@@H](NC(=O)[C@H](CC(C)C)NC(=O)[C@H](CO)NC(=O)[C@@H](N)CC(N)=O)C(C)C)C(=O)N[C@@H](Cc1ccc(O)cc1)C(=O)N[C@@H](CC(=O)O)C(=O)N[C@@H](CC(C)C)C(=O)O
IC50 (HLA-DR DRB1*0101 (DR1); DRB1 *0101): 13.1 µM

CSCC[C@H](NC(=O)[C@H](CC(=O)O)NC(=O)[C@H](Cc1ccc(O)cc1)NC(=O)[C@H](CC(C)C)NC(=O)[C@@H]1CCCN1C(=O)[C@H](Cc1c[nH]cn1)NC(=O)[C@@H]1CCCN1)C(=O)N[C@@H](CO)C(=O)N[C@@H](CC(C)C)C(=O)N[C@@H](CC(C)C)C(=O)N[C@@H](CCCCN)C(=O)N[C@@H](CC(N)=O)C(=O)N[C@@H](CCCNC(=N)N)C(=O)N[C@@H](Cc1ccccc1)C(=O)N[C@@H](CC(C)C)C(=O)O
IC50 (HLA-DR DRB1*0101 (DR1); DRB1 *0101): 1.32 µM

CC[C@H](C)[C@H](NC(=O)[C@@H]1CCCN1C(=O)[C@H](CC(=O)O)NC(=O)[C@@H](NC(=O)[C@@H]1CCCN1C(=O)[C@H](Cc1ccccc1)NC(=O)[C@@H](NC(=O)[C@H](CC(=O)O)NC(=O)[C@@H](NC(=O)[C@@H]1CCCN1C(=O)[C@H](CO)NC(=O)[C@@H](N)CCCNC(=N)N)[C@@H](C)CC)[C@@H](C)O)[C@@H](C)O)C(=O)N[C@@H](CCCCN)C(=O)N[C@@H](CCC(=O)O)C(=O)N[C@@H](CO)C(=O)O
IC50 (HLA-DR DRB1*0401 (DR4); DRB1 *0401): 13.1 µM

— patent publication US20060079453A1, “Hla binding peptides and their uses” (priority 2002, published 2006)
